Data as given in PubChem BioAssay AID1117354 (Cheminformatics & Chemogenomics Research Group (CCRG), …, 2015).
The source made the active and inactive calls. No rule for the calls is given here.

Protein sequences, listed by entry. Tags and fused reporters are not part of them.
UniProt O60674, whole entry, looked up: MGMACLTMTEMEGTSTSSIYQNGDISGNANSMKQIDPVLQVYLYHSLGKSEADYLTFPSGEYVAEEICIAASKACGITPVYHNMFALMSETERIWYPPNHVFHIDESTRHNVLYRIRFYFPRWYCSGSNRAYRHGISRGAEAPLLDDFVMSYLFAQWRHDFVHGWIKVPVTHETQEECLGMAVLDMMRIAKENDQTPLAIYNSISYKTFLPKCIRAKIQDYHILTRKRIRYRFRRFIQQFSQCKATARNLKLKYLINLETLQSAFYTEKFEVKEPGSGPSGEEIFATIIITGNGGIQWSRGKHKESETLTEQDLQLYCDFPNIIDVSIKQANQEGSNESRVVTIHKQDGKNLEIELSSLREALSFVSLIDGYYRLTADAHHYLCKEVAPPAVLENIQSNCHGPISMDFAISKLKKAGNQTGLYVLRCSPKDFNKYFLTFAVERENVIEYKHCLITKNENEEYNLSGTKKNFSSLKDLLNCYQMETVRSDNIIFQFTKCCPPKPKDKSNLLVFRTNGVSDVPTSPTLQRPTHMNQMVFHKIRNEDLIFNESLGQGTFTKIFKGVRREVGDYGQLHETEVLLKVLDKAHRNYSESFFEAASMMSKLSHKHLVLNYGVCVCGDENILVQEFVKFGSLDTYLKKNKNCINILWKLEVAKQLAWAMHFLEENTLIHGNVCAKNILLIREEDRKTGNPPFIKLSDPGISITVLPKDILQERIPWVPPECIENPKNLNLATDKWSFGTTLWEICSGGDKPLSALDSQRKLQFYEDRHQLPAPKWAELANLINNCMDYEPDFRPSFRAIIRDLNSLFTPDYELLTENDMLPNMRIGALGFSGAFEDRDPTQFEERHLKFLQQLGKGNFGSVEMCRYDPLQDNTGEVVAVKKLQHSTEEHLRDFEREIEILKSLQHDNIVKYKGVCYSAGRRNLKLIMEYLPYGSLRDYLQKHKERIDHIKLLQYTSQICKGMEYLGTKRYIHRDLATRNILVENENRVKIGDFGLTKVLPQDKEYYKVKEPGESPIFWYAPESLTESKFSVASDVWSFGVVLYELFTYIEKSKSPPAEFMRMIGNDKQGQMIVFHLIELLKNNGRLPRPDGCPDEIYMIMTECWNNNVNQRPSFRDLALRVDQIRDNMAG

Target: Tyrosine-protein kinase JAK2 (Homo sapiens) (UniProt O60674)
Experiment: primary HTS for Janus kinase 2 inhibitors, biochemical, Homo sapiens, LANCE Ultra TR-FRET detection, NCGC Pharmaceutical Collection (AID 1117354)
Conditions: LANCE Ultra TR-FRET kinase assay, at 20 µM (top of the series)

For `CN(CCCl)CCCl`, the inhibition was inactive: -1.58%.
